Laboratory results published in patent EP4837906A1, “NOVEL COMPOUND USED AS CBP/PA300 INHIBITOR, AND PHARMACEUTICAL COMPOSITION FOR PREVENTING OR TREATING CANCER, INFLAMMATORY DISORDERS, OR AUTOIMMUNE DISEASES COMPRISING SAME AS ACTIVE INGREDIENT” (dated 2026).

Protein sequences, listed by entry. Tags and fused reporters are not part of them. Residues count along the entry.
UniProt Q92793, 1085-1192 limits assumed: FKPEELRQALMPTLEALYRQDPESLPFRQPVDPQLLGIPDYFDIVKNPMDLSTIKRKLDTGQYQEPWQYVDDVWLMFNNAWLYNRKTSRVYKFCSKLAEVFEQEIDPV

Legend:
BRD4 (BD1) protein = BRD4 (BD1) protein (Homo sapiens, UniProt O60885); assay: BRD4 inhibitory activity, TR-FRET assay of BRD4 bromodomain with Ac-H4 peptide; conditions: read-out: BRD4 (BD1) IC50, BRD4 (BD1) protein 7.5 nM, Ac-H4 peptide 15 nM, 2 hours at room temperature
Experimental: BRD4 inhibitory activity was measured using a time resolved fluorescence resonance energy transfer (TR-FRET) experiment to verify the activity of BRD4 bromodomain.
(§1) The assay was performed in a final volume of 14 µl, optimized based on a CREBBP time resolved fluorescence resonance energy transfer (TR-FRET) assay kit (BPS Bioscience, cat. 32613) to maximize an assay window, and performed in a final volume of 14 µl, while maximizing the assay window. A TR-FRET fluorescence acceptor and a Tb donor were diluted in an assay buffer containing 2-[4-(2-hydroxyethyl)piperazin-1-yl]ethanesulfonic acid (hereafter, referred to as an assay buffer, BPS Bioscience, cat. 33012), and 3 µl of each solution was transferred to all wells of a white 384-low-volume well plate (Corning, cat. 4513). 2 µl of 4X Ac-H4 peptide (final concentration 15 nM) was transferred to high control wells and test wells. Each compound was prepared at 10 concentration points by serially diluting 3-fold from the highest concentration in a dimethyl sulfoxide solvent. The compound at each concentration was then diluted in the assay buffer to prepare a diluted compound solution that was 4-fold more concentrated than the final concentration. 2 µl of each compound or dimethyl sulfoxide prepared in this way was distributed into an assay plate so that the final test concentration was a minimum of 0.5 µM to a maximum of 10 µM (final dimethyl sulfoxide concentration 1%). 6 µL of 1X assay buffer was added to low control wells and 2 µl was added to high control and test wells. Then, 2 µl of 4X BRD4 (BD1) protein (final concentration 7.5 nM, BPS bioscience, cat 31040) was added to initiate a PPI reaction. The plate was reacted at room temperature for 2 hours before measuring the signal. The TR-FRET signal was measured using an EnVision Multilabel plate reader (PerkinElmer; Mirror LNACE/DELFIA Dual/Bias). For data analysis, the values of each well were obtained using a TR-FRET ratio ((Signal 665 nm/Signal 615 nm) X20000. Data analysis was performed using the TR-FRET ratio ((Signal 665 nm/Signal 615 nm) X20000. Data were reported as percent inhibition compared to control wells based on the following equation: %Activity = ((FRETcompound - FRETLow av)/(FRETHigh av - FRETLow av)) X100. IC50 analysis was determined by standard 4 parameter curve fitting according to an algorithm using GraphPad Prism 7.0 (GraphPad Software Inc., La Jolla, CA, USA). All data are expressed as mean ± standard error of the mean (SEM).

CBP BRD protein = CBP BRD protein (Homo sapiens, UniProt Q92793); assay: CBP inhibitory activity, TR-FRET assay of CBP bromodomain with Ac-H4 peptide; conditions: read-out: CBP BRD IC50, CBP BRD protein 7.5 nM, Ac-H4 peptide 85 nM, 2 hours at room temperature
Experimental: CBP inhibitory activity was measured using a time resolved fluorescence resonance energy transfer (TR-FRET) experiment to verify the activity of CBP bromodomain.
as §1, with “32619)” for “32613)”, “85” for “15”, “CBP BRD” for “BRD4 (BD1)”, “31128)” for “31040)”, “Dual/Bias).” for “Dual/Bias). For data analysis, the values of each well were obtained using a TR-FRET ratio ((Signal 665 nm/Signal 615 nm) X20000. Data analysis was performed using the TR-FRET ratio ((Signal 665 nm/Signal 615 nm) X20000. Data were reported as percent inhibition compared to control wells based on the following equation: %Activity = ((FRETcompound - FRETLow av)/(FRETHigh av - FRETLow av)) X100. IC50 analysis was determined by standard 4 parameter curve fitting according to an algorithm using GraphPad Prism 7.0 (GraphPad Software Inc., La Jolla, CA, USA). All data are expressed as mean ± standard error of the mean (SEM).”
For data analysis, the values of each well were obtained using a TR-FRET ratio ((Signal 665 nm/Signal 615 nm)X20000. Data analysis was performed using the TR-FRET ratio ((Signal 665 nm/Signal 615 nm)X20000. Data were reported as percent inhibition compared to control wells based on the following equation: %Activity = ((FRETcompound - FRETLow av)/(FRETHigh av - FRETLow av))X100. IC50 analysis was determined by standard 4 parameter curve fitting according to an algorithm using GraphPad Prism 7.0 (GraphPad Software Inc., La Jolla, CA, USA). All data are expressed as mean ± standard error of the mean (SEM).

Row | Compound | IC50 (BRD4 (BD1) protein) | IC50 (CBP BRD protein)
1 | Cc1csc(-c2ccc3c(c2)nc(-c2cncn2C)n3-c2ccc3c(c2)n(C)c(=O)n3C)c1 | > 5 µM | 0.5 to 5 µM
2 | Cn1cncc1-c1nc2cc(N3CCCCC3)ccc2n1-c1ccc2c(c1)n(C)c(=O)n2C | > 5 µM | 0.5 to 5 µM
3 | Cn1cncc1-c1nc2cc(-c3cnn(C)c3C(F)(F)F)ccc2n1-c1ccc2c(c1)n(C)c(=O)n2C | > 5 µM | 0.5 to 5 µM
4 | CNC(=O)Cn1cc(-c2ccc3c(c2)nc(-c2cncn2C)n3-c2ccc3c(c2)n(C)c(=O)n3C)nn1 | > 5 µM | 0.5 to 5 µM
5 | Cn1cncc1-c1nc2cc(-c3cnc(N)s3)ccc2n1-c1ccc2c(c1)n(C)c(=O)n2C | > 5 µM | 0.5 to 5 µM
6 | Cn1cncc1-c1nc2cc(-c3ccccc3C#N)ccc2n1-c1ccc2c(c1)n(C)c(=O)n2C | > 5 µM | 0.5 to 5 µM
7 | Cn1cncc1-c1nc2cc(-c3cnc(N)nc3)ccc2n1-c1ccc2c(c1)n(C)c(=O)n2C | > 5 µM | < 0.5 µM
8 | Cn1cncc1-c1nc2cc(-c3cn(CC(=O)N4CCOCC4)nn3)ccc2n1-c1ccc2c(c1)n(C)c(=O)n2C | > 5 µM | 0.5 to 5 µM
9 | Cc1ccc(-c2ccc3c(c2)nc(-c2cncn2C)n3-c2ccc3c(c2)n(C)c(=O)n3C)o1 | > 5 µM | 0.5 to 5 µM
10 | Cc1ncc(-c2ccc3c(c2)nc(-c2cncn2C)n3-c2ccc3c(c2)n(C)c(=O)n3C)s1 | > 5 µM | < 0.5 µM
11 | Cn1cncc1-c1nc2cc(-c3ccc(=O)n(C)c3)ccc2n1-c1ccc2c(c1)n(C)c(=O)n2C | 0.5 to 5 µM | 0.5 to 5 µM
12 | CNC(=O)c1ccc2c(c1)nc(C1CCCC(=O)N1)n2-c1ccc2c(c1)n(C)c(=O)n2C (centres unmarked) | – | > 5 µM
13 | Cn1cncc1-c1nc2cc(-c3cnn(CC(C)(C)O)c3)ccc2n1-c1ccc2c(c1)n(C)c(=O)n2C | > 5 µM | 0.5 to 5 µM
14 | Cn1cncc1-c1nc2cc(Oc3ccccc3)ccc2n1-c1ccc2c(c1)n(C)c(=O)n2C | > 5 µM | 0.5 to 5 µM
15 | COc1cc(OC)cc(-c2ccc3c(c2)nc(-c2cncn2C)n3-c2ccc3c(c2)n(C)c(=O)n3C)c1 | > 5 µM | < 0.5 µM
16 | CNS(=O)(=O)c1ccc2c(c1)nc(C1CCCC(=O)N1)n2-c1ccc2c(c1)n(C)c(=O)n2C (centres unmarked) | – | > 5 µM
17 | Cc1ccc2c(-c3nc4cc(C5CCN(C(=O)OC(C)(C)C)CC5)ccc4n3-c3ccc4c(c3)n(C)c(=O)n4C)c[nH]c2c1 | – | > 5 µM
18 | Cc1ccc2c(-c3nc4cc(Br)ccc4n3-c3ccc4c(c3)n(C)c(=O)n4C)c[nH]c2c1 | – | > 5 µM
19 | CNS(=O)(=O)c1ccc2c(c1)nc(-c1c[nH]c3cc(Br)ccc13)n2-c1ccc2c(c1)n(C)c(=O)n2C | – | > 5 µM
20 | CNS(=O)(=O)c1ccc2c(c1)nc(-c1cncn1-c1ccc(F)c(F)c1)n2-c1ccc2c(c1)n(C)c(=O)n2C | – | > 5 µM

Second part, the compound after the results:

Row | IC50 (BRD4 (BD1) protein) | IC50 (CBP BRD protein) | Compound
21 | > 5 µM | < 0.5 µM | CNC(=O)c1ccc(-c2ccc3c(c2)nc(C(C)(C)C#N)n3-c2ccc3c(c2)n(C)c(=O)n3C)cc1F
22 | > 5 µM | > 5 µM | CNC(=O)c1ccc(-c2ccc3c(c2)nc(-c2ccco2)n3-c2ccc3c(c2)n(C)c(=O)n3C)cc1F
23 | > 5 µM | 0.5 to 5 µM | CNC(=O)c1ccc(-c2ccc3c(c2)nc(-c2ccoc2C)n3-c2ccc3c(c2)n(C)c(=O)n3C)cc1F
24 | > 5 µM | < 0.5 µM | CNC(=O)c1ccc(-c2ccc3c(c2)nc(C(C)(C)N)n3-c2ccc3c(c2)n(C)c(=O)n3C)cc1F
25 | > 5 µM | 0.5 to 5 µM | CNC(=O)c1ccc(-c2ccc3c(c2)nc(-c2cccc(NCCN(C)C)c2C)n3-c2ccc3c(c2)n(C)c(=O)n3C)cc1F
26 | > 5 µM | 0.5 to 5 µM | Cn1cncc1-c1nc2cc(-c3cccc(F)c3)ccc2n1-c1ccc2c(c1)n(C)c(=O)n2C
27 | > 5 µM | 0.5 to 5 µM | CNC(=O)c1ccc(-c2ccc3c(c2)nc(-c2cccc(C(F)(F)F)c2)n3-c2ccc3c(c2)n(C)c(=O)n3C)cc1F
28 | > 5 µM | 0.5 to 5 µM | CNC(=O)c1ccc(-c2ccc3c(c2)nc(-c2ccccc2)n3-c2ccc3c(c2)n(C)c(=O)n3C)cc1F
29 | > 5 µM | < 0.5 µM | COc1ccc(-c2ccc3c(c2)nc(-c2cncn2C)n3-c2ccc3c(c2)n(C)c(=O)n3C)cc1
30 | > 5 µM | 0.5 to 5 µM | CNC(=O)c1ccc(-c2ccc3c(c2)nc(-c2cccc(C(F)(F)F)c2C)n3-c2ccc3c(c2)n(C)c(=O)n3C)cc1F
31 | 0.5 to 5 µM | < 0.5 µM | CNC(=O)c1cccc(-c2ccc3c(c2)nc(-c2cncn2C)n3-c2ccc3c(c2)n(C)c(=O)n3C)c1
32 | > 5 µM | 0.5 to 5 µM | CNC(=O)c1ccc(-c2ccc3c(c2)nc(-c2cncn2C)n3-c2ccc3c(c2)n(C)c(=O)n3C)cn1
33 | > 5 µM | > 5 µM | CNC(=O)c1ccc(-c2ccc3c(c2)nc(-c2cnc[nH]2)n3-c2ccc3c(c2)n(C)c(=O)n3C)cc1F
34 | > 5 µM | > 5 µM | CNC(=O)c1ccc(-c2ccc3c(c2)nc(C2CCOCC2)n3-c2ccc3c(c2)n(C)c(=O)n3C)cc1F
35 | > 5 µM | < 0.5 µM | CN(C)C(=O)c1ccc(-c2ccc3c(c2)nc(-c2cncn2C)n3-c2ccc3c(c2)n(C)c(=O)n3C)cc1
36 | > 5 µM | > 5 µM | CNC(=O)c1ccc(-c2ccc3c(c2)nc(-c2cocn2)n3-c2ccc3c(c2)n(C)c(=O)n3C)cc1F
37 | > 5 µM | 0.5 to 5 µM | CNC(=O)c1ccc(-c2ccc3c(c2)nc(-c2ccccc2C)n3-c2ccc3c(c2)n(C)c(=O)n3C)cc1F
38 | > 5 µM | < 0.5 µM | COc1cccc(-c2ccc3c(c2)nc(-c2cncn2C)n3-c2ccc3c(c2)n(C)c(=O)n3C)c1
39 | > 5 µM | 0.5 to 5 µM | Cn1cncc1-c1nc2cc(-c3ccccc3)ccc2n1-c1ccc2c(c1)n(C)c(=O)n2C
40 | > 5 µM | 0.5 to 5 µM | CNC(=O)c1ccc(-c2ccc3c(c2)nc(-c2cnc(C)n2C)n3-c2ccc3c(c2)n(C)c(=O)n3C)cc1F
41 | > 5 µM | < 0.5 µM | Cn1cncc1-c1nc2cc(-c3cc[nH]c(=O)c3)ccc2n1-c1ccc2c(c1)n(C)c(=O)n2C
42 | > 5 µM | 0.5 to 5 µM | CNC(=O)c1ccc(-c2ccc3c(c2)nc(-c2cccnc2C)n3-c2ccc3c(c2)n(C)c(=O)n3C)cc1F
43 | 0.5 to 5 µM | < 0.5 µM | Cn1cncc1-c1nc2cc(-c3ccc(NS(C)(=O)=O)cc3)ccc2n1-c1ccc2c(c1)n(C)c(=O)n2C
44 | > 5 µM | > 5 µM | CNC(=O)c1ccc(-c2ccc3c(c2)nc(C2CCCCC2)n3-c2ccc3c(c2)n(C)c(=O)n3C)cc1F
45 | – | > 5 µM | CNS(=O)(=O)c1ccc2c(c1)nc(-c1cncn1-c1ccccc1)n2-c1ccc2c(c1)n(C)c(=O)n2C
